From patent publication US10244779B2, “Method of improving stability of sweet enhancer and composition containing stabilized sweet enhancer” (SENOMYX, INC., priority 2010, dated 2019)

Conditions: buffer, 100 ppm, pH 2.8
Description: Aqueous buffer solution at pH 7.1 contains 50 mM potassium dihydrogen phosphate and ˜32 mM sodium hydroxide (solutions of 1.0 M hydrochloric acid and 1.0 M sodium hydroxide are used to adjust pH). Aqueous buffer solution at pH 4.0 contains 50 mM citric acidmonosodium salt and ˜7.4 mM sodium hydroxide (solutions of 1.0 M hydrochloric acid and 1.0 M sodium hydroxide are used to adjust pH). Aqueous buffer solution at pH 2.8 contains 50 mM citric acid and ˜16 mM sodium hydroxide (solutions of 1.0 M hydrochloric acid and 1.0 M sodium hydroxide are used to adjust pH).
The stock solutions of the test compounds at 25 mM are made by dissolving the compounds in dimethyl sulfoxide. The solutions of the stabilizers are made by dissolving the materials in the aqueous buffers. The stock solutions are then diluted to 25 μM with the stabilizer solutions to prepare the test solution and 4-mL aliquots of the solutions are transferred to 20-mL clear glass vial for testing. […]
The samples are analyzed using an Agilent 1100 LC/MSD equipped with a quaternary pump and a diode-array detector (DAD). The peak areas from the MSD chromatograms are used for quantitation, and the photostability is shown by plotting the percentages of the test compound which remains intact at all time points. The peak areas from the DAD chromatograms are used for quantitation for stabilizers with concentration at 250 uM or higher. […]

With `COc1cc2ccc(=O)oc2cc1O` [scopoletin] the “% Remaining @ 1 hr” value (1 h) was 103.59% and the “% Remaining @ 2 hrs” value (2 h) was 104.11%.
